Data taken from patent US20210343368A1, “Method for Engineering Synthetic Cis-Regulatory DNA” (Max-Delbrück-Centrum für Molekulare Medizin in der …, priority 2018, published 2021).

Test system: MES-hGICs-MGT #1low and PN-hGICs-MGT #1low cells
Assay: Phenotypic screening of sLCR response to selected factors, FACS
Format: cell-based, human
Conditions: compared with hMG co-culture / TNFα
Experimental: To investigate adaptive responses to external signaling in MES-hGICs-MGT #1^low and PN-hGICs-MGT #1^low cells, we next performed a phenotypic screening. NBE-propagated hGICs were stimulated with selected factors (cytokines, growth factors, compounds) and FACS analyzed 48 hours after stimulation (FIG. 13b). […] This outcome was reproducible across two independent MES-GBM sLCRs (MGT #1-2) and follow up validation. Instead, the PN phenotype appeared to be less responsive to changes induced by external signaling. (FIG. 13b-c and 17). MES GBM specification appeared to be additive to a pre-existing endogenous phenotype as gauged by surface expression of CD133 and PNGT #2. Indeed, TNFα was previously reported as a prominent MES-GBM signaling pathway and inducer of a PN-to-MES transition.

**Q.** With “IL-2: inflammatory mediator derived from the adaptive immune system” as the substance, how does the “direct MGT #1 activation” value read?
**A.** did not trigger direct MGT #1 activation to a comparable extent
